These results are taken from US7326684B2, “Peptides for enhancing resistance to microbial infections” (priority 2002, dated 2008).

Data set [1] has as its system high-affinity (non-opioid) β-endorphin receptors on murine peritoneal macrophages. Particulars: read-out: Ki, competition with [125I]β-endorphin, Zav'yalov et al. 1996; cited from earlier work.
Data set [2] concerns non-opioid receptors for β-endorphin on T lymphocytes. Briefly: Competition of unlabeled ligands with [125I]β-endorphin binding to T lymphocytes. The conditions noted are these: read-out: Ki, inhibition of [125I]β-endorphin binding; human T lymphocytes, 1 nM [125I]β-endorphin, 4° C.
A further data set in a line: Immunogenicity in mice. Particulars: mice as model animals.
In data set [3] the test system is non-opioid receptors for β-endorphin on T lymphocytes. Particulars: read-out: Kd of labeled peptide binding to T lymphocytes; human T lymphocytes, Scatchard, in the absence of naloxone.
Data set [4] has as its system T lymphocytes from the blood of healthy donors. Briefly: Con A-induced proliferation of T lymphocytes. Particulars: with naloxone. Format: cell-based, human.

For orientation: Ki means a dissociation constant, usually derived from enzyme kinetics or from competition with a known ligand. One may read the Kd as a measure of binding affinity in units of concentration. As to `CC(C)C[C@H](NC(=O)[C@H](CS)NC(=O)[C@@H](NC(=O)[C@H](CC(C)C)NC(=O)[C@@H](N)CO)[C@@H](C)O)C(=O)N[C@H](C(=O)N[C@@H](CCCCN)C(=O)NCC(=O)N[C@@H](Cc1ccccc1)C(=O)N[C@@H](Cc1ccc(O)cc1)C(=O)O)C(C)C` [immunorphin], the results for the Ki in data set [1] and in data set [2] were 2.5 nM and 0.6 nM, respectively. Besides, the Immunogenicity entry in the data set “Immunogenicity in mice” was “No immunogenicity”. In addition, the Kd in data set [3] is 7 nM. Besides, in data set [4], the “Stimulating effect on T lymphocyte proliferation in presence of naloxone” value is on record as “not inhibited by naloxone”.
